Data as given in patent US8008316B2, “Azonafide derived tumor and cancer targeting compounds” (The United States of America as represented by the …, priority 2006, dated 2011).

System: lung cancer cell line (Calu-3) overexpressing Her2/neu
Assay: MTT cell toxicity assay on Calu-3 cells
Assay type: cell-based
Conditions: Calu-3, MTT

Substance: Trastuzumab: antibody against Her2/Nue [reference compound]
- Cell Number, % From Control (concentration 50 nM): 47%
- Cell Number, % From Control (concentration 100 nM): 54%
